Source: patent US8419820B2, “Fast dissolving water-soluble fertilizer formulations and methods and uses thereof” (Everris International B.V., priority 2009, dated 2013)
Only a part of the results on these compounds is given; other tests are left out.

Experiment: pH of a 1% solution of fertilizer components in water
Format: physicochemical
Conditions: 1% solution in water at room temperature

For Ammonium Nitrate, the pH was 6.
